Earlier results in paper PMC10629583, “Specific inhibition of an anticancer target, polo-like kinase 1, by allosterically dismantling its mechanism of substrate recognition” (Proceedings of the National Academy of Sciences of the …, 2023).

Sequences of proteins named here, by UniProt entry; tags and fusion partners are left off. Residues count along the entry.
UniProt P53350, 371-603: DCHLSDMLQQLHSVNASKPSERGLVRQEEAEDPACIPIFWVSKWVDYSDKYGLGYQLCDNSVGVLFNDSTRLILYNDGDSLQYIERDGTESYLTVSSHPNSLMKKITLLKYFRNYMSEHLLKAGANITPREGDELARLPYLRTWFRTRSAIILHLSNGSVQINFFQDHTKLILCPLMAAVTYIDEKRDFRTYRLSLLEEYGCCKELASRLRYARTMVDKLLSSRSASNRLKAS
UniProt Q71F23, whole entry, looked up, tested part not stated: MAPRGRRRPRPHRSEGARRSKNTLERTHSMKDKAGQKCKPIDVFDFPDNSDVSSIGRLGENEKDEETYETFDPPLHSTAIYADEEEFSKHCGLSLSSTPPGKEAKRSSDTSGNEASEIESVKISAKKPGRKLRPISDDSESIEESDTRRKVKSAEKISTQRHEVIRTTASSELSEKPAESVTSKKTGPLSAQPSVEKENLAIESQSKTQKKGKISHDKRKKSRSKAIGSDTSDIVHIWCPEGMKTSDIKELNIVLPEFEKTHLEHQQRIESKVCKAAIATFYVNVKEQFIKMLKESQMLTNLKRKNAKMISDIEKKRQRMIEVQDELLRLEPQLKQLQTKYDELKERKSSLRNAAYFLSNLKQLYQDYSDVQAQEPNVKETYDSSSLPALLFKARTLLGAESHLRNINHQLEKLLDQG

Target: PLK1 PBD (Homo sapiens) (UniProt P53350)

Kd: 0.45 µM
Substance: PLHSpT (PBIP1 p-T78 peptide) (from UniProt Q71F23)
